Curated experimental data: fraction unbound values

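The OPERA project collected these measurements from public sources as training and test data for property models. The files give a single number for a compound and property, which may rest on several reports. Method, purity and exact conditions of the single measurements are not given. The measured form (salt, isomer or mixture) is not always the one drawn. Some entries may be limits or estimates that an upstream database listed as plain numbers.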

The unbound fraction in human plasma runs from 0 (all bound) to 1 (all free). "–" marks a cell with nothing listed here.

compound,name,plasma fu
C#CC(O)(C=CCl)CC (stereo not drawn),Ethchlorvynol,0.4583
Oc1cccc2cccnc12,8-Hydroxyquinoline,0.1184
CCc1ccc(C(=O)NN(C(=O)c2cc(C)cc(C)c2)C(C)(C)C)cc1,Tebufenozide,0.0333
CCOP(=S)(NC(C)C)Oc1ccccc1C(=O)OC(C)C (stereo not drawn),Isofenphos,0.0105
Fc1ccc(C2(Cn3cncn3)OC2c2ccccc2Cl)cc1 (stereo not drawn),Epoxiconazole,0.0575
CCOP(=S)(OCC)OC(Cl)C(Cl)(Cl)Cl (stereo not drawn),Chlorethoxyfos,0.00322
CC(C)N(Cc1ccccc1)C(=O)C(C)(C)C,Butam,0.2267
CC(=O)CCC(C)=O,"2,5-Hexanedione",0.93
COc1cc2c(cc1OC)[C@@H]1CC(=O)[C@@H](CC(C)C)CN1CC2,Tetrabenazine,0.15
CNC(=O)Oc1cccc2c1OC(C)(C)O2,Bendiocarb,0.1975
Oc1ccc(Cl)cc1Cc1cc(Cl)ccc1O,Dichlorophen,0.0045
Cc1cccc([N+](=O)[O-])c1,3-Nitrotoluene,0.07728
CC(=O)O[C@H]1C[C@@H]2CC[C@@H]3[C@H](CC[C@@]4(C)[C@H]3C[C@H]([N+]3(C)CCCCC3)[C@@H]4OC(C)=O)[C@@]2(C)C[C@@H]1[N+]1(C)CCCCC1,Pancuronium,0.09
CCOC(=O)COc1cc(-c2nn(C)c(OC(F)F)c2Cl)c(F)cc1Cl,Pyraflufen-ethyl,0.435
Oc1ccccc1-c1ccccc1,2-Phenylphenol,0.04075
Fc1ccccc1C1=NCC(=S)N(CC(F)(F)F)c2ccc(Cl)cc21,Quazepam,0.05
C=CCC1(C(C)C)C(=O)NC(=O)NC1=O,Aprobarbital,0.38
CCOP(=S)(OCC)Oc1nc(Cl)c(Cl)cc1Cl,Chlorpyrifos,0.007932
CCCCCCCCCCCCCN1CC(C)OC(C)C1 (stereo not drawn),Tridemorph,0.002679
CCC(=NOC/C=C/Cl)C1=C(O)CC(C2CCOCC2)CC1=O (stereo partly drawn),Tepraloxydim,0.3826
CNC(=O)Oc1ccc2c(c1)[C@]1(C)CCN(C)[C@@H]1N2C,Physostigmine,0.699
O=C(NC(=O)c1c(F)cccc1F)Nc1ccc(Cl)cc1,Diflubenzuron,0.0308
CCCC(C)C1(CC)C(=O)N=C(O)NC1=O (stereo not drawn),Pentobarbital,0.3873
CCOC(=O)C1(c2ccccc2)CCN(CCc2ccc(N)cc2)CC1,Anileridine,0.05
CCOc1ccc(N)cc1,4-ethoxyaniline,0.485
NS(=O)(=O)C(F)(F)C(F)(F)C(F)(F)C(F)(F)C(F)(F)C(F)(F)C(F)(F)C(F)(F)F,Perfluorooctanesulfonamide,0.001515
Oc1ccc(C(c2ccc(O)cc2)(C(F)(F)F)C(F)(F)F)cc1,Bisphenol af,0.00685
CN(c1nc2ccccc2s1)C1CCN(C[C@H](O)COc2ccc(F)c(F)c2)CC1,Lubeluzole,0.003
CCOP(=S)(OCC)Oc1cc(C)nc(C(C)C)n1,Diazinon,0.02065
CNC(=O)ON=C(SC)C(=O)N(C)C,Oxamyl,0.7924
CCCOC/C(=Nc1ccc(Cl)cc1C(F)(F)F)/[n]1c[n]cc1,–,0.005445
CC(C)C1CCC(Cc2ccc(Cl)cc2)C1(O)Cn1cncn1 (stereo not drawn),Ipconazole,0.0132
O=S(=O)([O-])C(F)(F)C(F)(F)C(F)(F)C(F)(F)C(F)(F)C(F)(F)F.[K+],Potassium perfluorohexanesulfonate,0.001342
O=C(CS(=O)C(c1ccccc1)c1ccccc1)NO (stereo not drawn),Adrafinil,0.2
COP(=O)(OC)C(O)C(Cl)(Cl)Cl (stereo not drawn),Trichlorfon,0.696
CO/C=C(/C(=O)OC)c1ccccc1Oc1cc(Oc2ccccc2C#N)ncn1,Azoxystrobin,0.04827
N#CC(CCN1CCC(C(N)=O)(N2CCCCC2)CC1)(c1ccccc1)c1ccccc1,Piritramide [INN:BAN:DCF],0.06083
Cc1cc(-c2ccc(N)c(C)c2)ccc1N.Cl.Cl,"3,3'-dimethylbenzidine dihydrochloride",0.1281
CCC1(CC)C(=O)NCC(C)C1=O (stereo not drawn),Methyprylon,0.4
COc1ccc(C)cc1N,2-Methoxy-5-methylaniline,0.4043
O=C(Nc1ccccc1F)NC1N=C(c2ccccc2)c2ccccc2NC1=O (stereo not drawn),–,0.03097
CC(NC(C)(C)C)C(=O)c1cccc(Cl)c1 (stereo not drawn),Bupropion,0.3675
COC(=O)c1ccccc1CS(=O)(=O)NC(=O)Nc1nc(OC)cc(OC)n1,Bensulfuron-methyl,0.005775
CCCN(CCC)c1c([N+](=O)[O-])cc(S(N)(=O)=O)cc1[N+](=O)[O-],Oryzalin,0.00375
CNC(=O)Oc1ccccc1OC(C)C,Propoxur,0.2167
ClC(Cl)(Cl)Cl,–,0.6105
O=C(O)CCCOc1ccc(Cl)cc1Cl,"2,4-DB",0.007656
CSc1nnc(C(C)(C)C)c(=O)n1N,Metribuzin,0.4888
CCON=C(CC)C1=C(O)CC(c2c(C)cc(C)cc2C)CC1=O (stereo not drawn),Tralkoxydim,0.169
CN1C(=O)CCS(=O)(=O)C1c1ccc(Cl)cc1 (stereo not drawn),Chlormezanone,0.5
CCOC(=O)CC(SP(=O)(OC)OC)C(=O)OCC (stereo not drawn),Malaoxon,0.538
CCCN(CC)CC1COC2(CCC(C(C)(C)C)CC2)O1 (stereo not drawn),Spiroxamine,0.005908
CO/N=C(/C1=NOCCO1)c1ccccc1Oc1ncnc(Oc2ccccc2Cl)c1F,Fluoxastrobin,0.0367

Excerpt, the final 5 entries:

compound	name	plasma fu
CCON=C(CC)C1=C(O)CC(c2c(C)cc(C)cc2C)CC1=O (stereo not drawn)	Tralkoxydim	0.169
CN1C(=O)CCS(=O)(=O)C1c1ccc(Cl)cc1 (stereo not drawn)	Chlormezanone	0.5
CCOC(=O)CC(SP(=O)(OC)OC)C(=O)OCC (stereo not drawn)	Malaoxon	0.538
CCCN(CC)CC1COC2(CCC(C(C)(C)C)CC2)O1 (stereo not drawn)	Spiroxamine	0.005908
CO/N=C(/C1=NOCCO1)c1ccccc1Oc1ncnc(Oc2ccccc2Cl)c1F	Fluoxastrobin	0.0367

Source: data files of OPERA 2.9 (Mansouri et al.), github.com/kmansouri/OPERA.